The source of these data is ChEMBL document CHEMBL4364306, “Structure-activity relationships of thiazole and benzothiazole derivatives as selective cannabinoid CB2 agonists with in vivo anti-inflammatory properties” (Eur J Med Chem, 2019).

Protein sequences, listed by entry. Tags and fused reporters are not part of them.
UniProt P34972, whole entry: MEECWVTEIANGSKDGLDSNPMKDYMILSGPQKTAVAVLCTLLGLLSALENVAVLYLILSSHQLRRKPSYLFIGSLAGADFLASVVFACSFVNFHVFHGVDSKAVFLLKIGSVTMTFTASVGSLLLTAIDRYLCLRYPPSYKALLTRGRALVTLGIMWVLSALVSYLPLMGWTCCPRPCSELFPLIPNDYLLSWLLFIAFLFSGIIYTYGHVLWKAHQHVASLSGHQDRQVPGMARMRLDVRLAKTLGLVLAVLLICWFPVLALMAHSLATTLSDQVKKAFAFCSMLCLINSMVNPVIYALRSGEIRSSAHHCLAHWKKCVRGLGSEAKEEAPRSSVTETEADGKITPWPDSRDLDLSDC

Calls of active or inactive are those of the source. The rule behind the calls is not given here.

For this assay, the target named is Cannabinoid receptor 2 (Homo sapiens, UniProt P34972). Kind of assay: Displacement of [3H]CP55940 from recombinant human CB2R expressed in HEK293 cell membranes at 10 uM incubated for 90 mins relative to control. The method in brief:
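Membranes of HEK-293 cells expressing human recombinant CB2 (Bmax 4.7 pmol/mg protein) incubated with [3H]-CP-55,940 at 0.084 nM (Kd 0.31 nM) for 90 min at 30 °C. Compound screened at 10 µM for percent displacement. Nonspecific binding defined with WIN55,212-2.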
Background: Displacement assays read how much labelled ligand stays bound in the presence of the test substance.

On to `Cc1ccc(Cn2nc(C(=O)N[C@@H]3C(C)(C)[C@@H]4CC[C@@]3(C)C4)cc2-c2ccc(Cl)c(C)c2)cc1`, for which the outcome was Active.
